scFv variants of Ab-14 (heavy chain) against a SARS-CoV-2 spike peptide

Data: MIT Lincoln Laboratory AlphaSeq set, Engelhart et al. 2022, doi:10.1038/s41597-022-01779-4, as distributed in FLAb.

All variants were tested on one target, the spike HR2 peptide PDVDLGDISGINAS (SARS-CoV-2).

The variants keep the light chain, the linker and the frameworks of Ab-14 (scFv order VH, a 15-residue (Gly4Ser)3 linker, VL).
VH: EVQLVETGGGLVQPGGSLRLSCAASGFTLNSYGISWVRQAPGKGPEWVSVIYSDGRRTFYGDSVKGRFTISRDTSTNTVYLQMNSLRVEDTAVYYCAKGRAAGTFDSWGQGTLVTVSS
VL: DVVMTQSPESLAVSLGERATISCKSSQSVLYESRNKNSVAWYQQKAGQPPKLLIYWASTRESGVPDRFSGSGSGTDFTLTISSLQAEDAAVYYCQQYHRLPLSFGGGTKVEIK

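The parent was found by panning a naive human phage display library on the peptide. The library (AAYL49) carries one to three amino acid substitutions per variant, with no insertions or deletions. In AlphaSeq, yeast of one mating type display the scFv and yeast of the other type display the target. After mating in shaken culture at 30 °C for 16 h, diploids were selected and their barcode pairs sequenced. Read counts were normalised to the haploid input and turned into Kd by a linear fit to BCL2-family pairs of known affinity, for each replicate. Each pool was mated in three replicate cultures.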

Each variant is given by its three heavy chain CDRs, as the data file delimits them; those of the parent are GFTLNSYGIS, VIYSDGRRTFYGDSVK, GRAAGTFDS. This list gathers variants with a substitution at S31 (VH, numbered from residue 1). Each Kd is an estimate from the mating assay, the geometric mean of the replicates in which the pair was seen; lower is stronger. A pair that was not seen in any replicate is written "nd"; this usually means weak binding, but a binder can also be missed. In this assay the parent's reference entry averaged 4.4 nM; its copy inside this library read 13 µM (one replicate of three). Empty control strains, which show no peptide, gave a signal in 15% of pairings with library AAYL49; the median was 11 µM and 95% of these signals were weaker than 680 nM. No background was subtracted.

- GFTLNKYGLS, VIYVDGRRTFYGDSVK, GRAAGTFDS: nd (0 of 3 replicates)
- GFTLNPYGIS, VITSDGRRTFYFDSVK, GRAAGTFDS: 1.9 µM (1 of 3 replicates)
- GYTLNIYGIS, VIYSDGRRTFYGDDVK, GRAAGTFDS: 13 µM (1 of 3 replicates)
- QFTLNMYGIS, VIYSDGRRPFYGDSVK, GRAAGTFDS: 5.4 µM (1 of 3 replicates)
- GFTLNFYGIS, VIYSTGRRTFYEDSVK, GRAAGTFDS: nd (0 of 3 replicates)
- GFTLNYYGIS, VIYSDGRGHFYGDSVK, GRAAGTFDS: 2.5 µM (1 of 3 replicates)
- GFTLNVYGIS, VIYSDGRRTFYGQSVK, GRAAKTFDS: 3.8 µM (2 of 3 replicates)
- GFTLNIYGIS, VIYSDGRRTFYGDSEK, GRAAGTFDS: 3.6 µM (1 of 3 replicates)
- GFTLNEYGIS, VKYSDGRRTFYGDSVK, GRLAGTFDS: nd (0 of 3 replicates)
- GFTLNRYGIS, VIASDGRRTFYGDSVK, GRNAGTFDS: nd (0 of 3 replicates)
- GFTLNPYGIS, VIYSDGLRTFYGKSVK, GRAAGTFDS: 4.9 µM (1 of 3 replicates)
- GFTLNRYGIS, VIYSDGRRTFYGWSVK, GRAAGTFDS: 1.3 µM (3 of 3 replicates)
- TFTLNEYGIS, VIYKDGRRTFYGDSVK, GRAAGTFDS: nd (0 of 3 replicates)
- GFTLNWYGIS, VIYSDGRRTFYGDSVK, GRAAGTLDS: 53 nM (3 of 3 replicates)
- GFTLNNYGSS, VIYSDGRRTFSGDSVK, GRAAGTFDS: 74 µM (1 of 3 replicates)
- GFTLNPYGIS, VIYSDGRRTFWGDSVK, GRAAGTFDS: nd (0 of 3 replicates)
- GFTLNHYGIS, VVYSDGRRTFYGDSVK, GRAAGTFDS: 130 nM (3 of 3 replicates)
- GFTLNQYGIS, AIYSDGCRTFYGDSVK, GRAAGTFDS: 4.1 µM (1 of 3 replicates)
- GFTLNMYGIS, MIYSDCRRTFYGDSVK, GRAAGTFDS: nd (0 of 3 replicates)
- GFTLNVYGIS, VIYSDGNRTFYGDSVK, GRARGTFDS: nd (0 of 3 replicates)
- GFTNNQYGIS, VIYSDFRRTFYGDSVK, GRAAGTFDS: nd (0 of 3 replicates)
- GFTLNQYGIS, VIYSDGRETFYGDSVN, GRAAGTFDS: 31 µM (1 of 3 replicates)
- GFTLNNYGIS, VIYRDGRRTFYGDAVK, GRAAGTFDS: 34 nM (3 of 3 replicates)
- GFTLNHYGIS, VIYSDGRRTFYGRSVK, GRAAGTFDD: nd (0 of 3 replicates)
- GFPLNGYGIS, VIYSDGRRTFYGDSVK, FRAAGTFDS: 4.8 µM (1 of 3 replicates)
- GDTLNAYGIS, VIYSDGRRTFYGRSVK, GRAAGTFDS: 180 nM (3 of 3 replicates)
- GFTLNVYGIS, VIYSDGCRTFYGDSVK, QRAAGTFDS: 140 µM (1 of 3 replicates)
- GFTLNMYGIS, VIYSFGRRTFYGDSVK, IRAAGTFDS: 40 µM (1 of 3 replicates)
- GFTLNNVGIS, VIYSDGRRTFYGDSVK, GRADGTFDS: 330 nM (3 of 3 replicates)
- GNTLNNYGIS, VIYSDGRRTFYGDSVK, GRAFGTFDS: nd (0 of 3 replicates)
- GFTCNNYGIS, VIHSDGRRTFYGDSVK, GRAAGTFDS: nd (0 of 3 replicates)
- GFTWNMYGIS, VIYSDGFRTFYGDSVK, GRAAGTFDS: 59 µM (1 of 3 replicates)
- GFTLNPYGFS, VIYSDGDRTFYGDSVK, GRAAGTFDS: nd (0 of 3 replicates)
- GFTLNKYGIS, VIYSDGRRTFYGESVK, GRARGTFDS: 8.4 nM (3 of 3 replicates)
- GFTLNQYGIS, VIYSDGRRTFYGDSVK, GRAAGTFKS: 110 µM (3 of 3 replicates)
- GFTLNKYGIS, VIYSMGRRTFYGDSVK, GRAAGTFDS: 5.7 µM (1 of 3 replicates)
- GITLNQYGIS, VIHSDGRRTFYGDSVK, GRAAGTFDS: 8.2 µM (1 of 3 replicates)
- GFTLNPYGIS, VIYSDGRRTFYGDSVL, GRAAGTFDS: 11 µM (1 of 3 replicates)
- GFTLNKYGIS, DIYSDGRRTFYGDSVK, GRAAGTFDS: 30 µM (3 of 3 replicates)
- GFTLNKYGIS, VIYSDGRRTFYGDSVK, PRACGTFDS: nd (0 of 3 replicates)
- TFTLNFYGIY, VIYSDGRRTFYGDSVK, GRAAGTFDS: nd (0 of 3 replicates)
- GFTLNQYAIS, VIYSDGRRTFYGDSVK, GRIAGTFDS: nd (0 of 3 replicates)
- GFTLNWYGIS, IIYSDGRRTFYGDSVK, GRAAGTFDG: nd (0 of 3 replicates)
- GFTLNFYGIS, VIYSDGRRTFYGDSVK, GRAAGTFDS: 550 nM (3 of 3 replicates)
- GFTLNDYGIS, VIYSDGRRTFYTDSVK, GRAAGIFDS: 11 nM (3 of 3 replicates)
- GFTLNVYGIS, VIYSDGWRTFYGDSVK, GRAAGTFDS: 1.6 µM (3 of 3 replicates)
- GFTLNIHGIS, VIYSDGRRTFYGDSVK, GRAAGTFDS: nd (0 of 3 replicates)